AlphaSeq binding of Ab-91 heavy chain variants to a spike HR2 peptide

Values reported by Engelhart et al. 2022, doi:10.1038/s41597-022-01779-4 (FLAb copy).

Binding partner: SARS-CoV-2 spike HR2 peptide, sequence PDVDLGDISGINAS.

Parent scFv Ab-91: VL joined to VH by a (GGGGS)3 linker. Changes lie in the heavy chain CDRs alone.
VL: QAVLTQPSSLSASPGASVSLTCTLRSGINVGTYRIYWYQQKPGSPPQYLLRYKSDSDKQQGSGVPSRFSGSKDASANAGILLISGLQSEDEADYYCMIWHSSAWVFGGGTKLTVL
VH: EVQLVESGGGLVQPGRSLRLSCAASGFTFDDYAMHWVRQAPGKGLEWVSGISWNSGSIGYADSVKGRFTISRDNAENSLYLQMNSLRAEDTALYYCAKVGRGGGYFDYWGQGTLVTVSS

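The starting antibody came from a phage panning campaign against this peptide. The library (AAYL51) carries one to three amino acid substitutions per variant, with no insertions or deletions. The scFvs were displayed on barcoded MATa yeast, the peptide on MATalpha yeast. Mating (16 h, 30 °C) was followed by selection of diploids and sequencing of their barcodes. Read counts were normalised to the haploid input and turned into Kd by a linear fit to BCL2-family pairs of known affinity, for each replicate. Each pool was mated in three replicate cultures.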

Changes read parent residue, position, new residue, counted from the first residue of the VH shown.
Every variant below is changed at D31 of the VH (sequential numbering).
Kd is apparent (estimated from mating counts) and averaged on the log scale over replicates with a signal. Smaller is tighter.
"nd" marks a missing value. The strain was present, yet no cells mated with the target were sequenced in any replicate, which points to weak or no binding.
Entries are sorted by rising average, undetected variants last.
As a blank, each scFv also met three strains without target: over library AAYL51, 21% of these pairings were detected, typically at 34 µM and seldom below 1.8 µM. Also given: how often the same scFv was detected with the empty control strains.

With D31T I58A G102L the result was 8.0 nM (3 of 3 replicates; controls 0 of 9). For T28E D31Q A61Q, the assay gave 9.5 nM (3 of 3 replicates; controls 0 of 9). For D31Q G56I Y108D, the assay gave 11 nM (3 of 3 replicates; controls 1 of 9). The variant D31E G103M G104K showed 11 nM (3 of 3 replicates; controls 0 of 9). The variant D31V gave 28 nM (3 of 3 replicates; controls 3 of 9). With D31K W53Q Y108D the result was 75 nM (3 of 3 replicates; controls 1 of 9). For D31S Y32W A61Q, the assay gave 200 nM (3 of 3 replicates; controls 1 of 9). With T28P D31I K65D the result was 460 nM (3 of 3 replicates; controls 4 of 9). The variant T28L D31Q N54L gave 1.9 µM (2 of 3 replicates; controls 1 of 9).

The variant D31R S57C D107L showed 2.0 µM (1 of 3 replicates; controls 4 of 9). The variant T28K D31P M34Q gave 7.0 µM (1 of 3 replicates; controls 3 of 9). The variant D31E S57N Y108Q gave 13 µM (1 of 3 replicates; controls 1 of 9). The variant D31L V64L K65E gave 17 µM (2 of 3 replicates; controls 5 of 9). The variant D31V I51V A61L gave 20 µM (2 of 3 replicates; controls 1 of 9). The variant D31H A33D G104A gave 21 µM (1 of 3 replicates; controls 1 of 9). The variant D31F G59P Y108D gave 32 µM (2 of 3 replicates; controls 0 of 9). The variant F27R D31H G102R showed 36 µM (3 of 3 replicates; controls 3 of 9). With T28V D31Y the result was 38 µM (1 of 3 replicates; controls 3 of 9).

The variant D31A G102K G103H showed 81 µM (3 of 3 replicates; controls 1 of 9). With D31L N54S G56P the result was 120 µM (2 of 3 replicates; controls 2 of 9). With F29L D31K I58P the result was 130 µM (1 of 3 replicates; controls 1 of 9). The variant D31N W53H gave 170 µM (1 of 3 replicates; controls 1 of 9). The variant D31G K65G R101Y showed 380 µM (2 of 3 replicates; controls 3 of 9). For D31Y D62M Y108I, the assay gave 390 µM (1 of 3 replicates; controls 0 of 9). The variant D31C S55G S57A gave 2.2 mM (1 of 3 replicates; controls 5 of 9). With D31V N54T G100I the result was nd (0 of 3 replicates; controls 0 of 9). For D31W G59S Y60P, the assay gave nd (0 of 3 replicates; controls 3 of 9).

The variant D31K G50P Y108C showed nd (0 of 3 replicates; controls 1 of 9). The variant F29V D31M K65D showed nd (0 of 3 replicates; controls 0 of 9). For D31W W53P V99F, the assay gave nd (0 of 3 replicates; controls 0 of 9). The variant G26P D31F Y60N gave nd (0 of 3 replicates; controls 1 of 9). The variant D31N M34N K65G showed nd (0 of 3 replicates; controls 0 of 9). The variant G26R D31N H35G gave nd (0 of 3 replicates; controls 0 of 9). With F29W D31P G56V the result was nd (0 of 3 replicates; controls 1 of 9). For D31S G50V S63E, the assay gave nd (0 of 3 replicates; controls 0 of 9). The variant D31R H35C gave nd (0 of 3 replicates; controls 0 of 9).

For D31L H35M S55F, the assay gave nd (0 of 3 replicates; controls 0 of 9). For D31W S55R G56E, the assay gave nd (0 of 3 replicates; controls 0 of 9). The variant D31W G50K S63Y gave nd (0 of 3 replicates; controls 3 of 9). With D31P R101C the result was nd (0 of 3 replicates; controls 0 of 9). The variant D31G S55H gave nd (0 of 3 replicates; controls 0 of 9). With D31K Y32V the result was nd (0 of 3 replicates; controls 0 of 9). For D31G S55W V64T, the assay gave nd (0 of 3 replicates; controls 1 of 9).